Measured values reported in US8852552B2, “Agents and methods for visualizing analytes” (priority 2010, dated 2014).

Conditions: tritiated complex with peptide FLNCCPGCCMEP, several weeks after isolation

2,5-di-(1,3,2-Dithiarsolan-2yl)-9(4-fluorophenyl)-6-[^3H3]methoxy-3-fluorone [6-[^3H3CO]-PSMXB-6]
stability of isolated radiolabelled complex on reanalysis: adequate stability
